Here are results for one substance from article PMC3366976, “Tuning the Drug Efflux Activity of an ABC Transporter in vivo by in vitro Selected DARPin Binders” (PLoS ONE, 2012).

In the series the test system is Nc1ncnc2c1ncn2[C@@H]1O[C@H](COP(=O)(O)OP(=O)(O)OP(=O)(O)O)[C@@H](O)[C@H]1O. Kind of series: purified protein. The following applies: non-binding control DARPin E3_5 present (2.5 µM), 10 mM MgSO4, 50 mM K-HEPES pH 7.0, 30°C, Hill coefficient fitted.

“LmrCD (Lactococcus cremoris subsp. cremoris MG1363; A2RI37:C179R)” displayed a K0.5 of 0.73 ± 0.09 mM.
